{"source": "PubChem BioAssay AID1885", "about": "(Broad Institute, 2009)", "note": "This is a selection; strong and weak results do not stand in their true shares. Activity calls are given as the source filed them.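 The calls were made as follows: active = mean inhibition across valid replicates above about 55% (limit read from the data); inconclusive = mean below that limit but half or more replicates reach it; inactive = mean below it, under half of replicates reach it.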"}
{"experiment": "inhibitors of intracellular T. cruzi growth, primary screen, luminescence, NIH3T3 host cells (AID 1885);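 also: signal also drops with host cell toxicity which is not excluded here; 0% = plate median of DMSO wells and 100% = zero luminescence signal; higher percent means less beta-gal luminescence so fewer parasites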", "conditions": "T. cruzi beta-gal in NIH3T3, luminescence, 90 h; stronger effect = higher value; concentration not given here", "procedure,_shortened": "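Incubation – ≥90 h infection period, 3 h prior cell attachment · System – NIH/3T3 fibroblasts plus reporter T. cruzi · Doses – compound pinned at 50 nL/well, DMSO · Read-out basis – percent inhibition of parasite-derived β-gal signal · Signal – luminescent β-galactosidase signal after 60 min lysis · Also added – 5000 T. cruzi trypomastigotes/well · Medium – Low-serum DMEM with 2% FBS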"}
{"compound": "Cc1ccc(NCCc2c([N+](=O)[O-])cc([N+](=O)[O-])cc2[N+](=O)[O-])cc1", "inhibition": "active: 56.4%"}
{"compound": "CCC1=CC2Cc3nc4ccc(Cl)cc4c(N)c3C(C1)C2", "note": "(configuration not stated)", "inhibition": "active: 60%"}
{"compound": "CCC(C)N(CC(C)C)C(=S)SC(NC(C)=O)C(Cl)(Cl)Cl", "note": "(configuration not stated)", "inhibition": "active: 77.6%"}
{"compound": "O=[N+]([O-])c1cc([N+](=O)[O-])c(-c2ccn[nH]2)s1", "inhibition": "active: 63.7%"}
{"compound": "CCN(CC)C(=S)SC(NC=O)C(Cl)(Cl)Cl", "note": "(configuration not stated)", "inhibition": "active: 65.6%"}
{"compound": "O=[N+]([O-])c1cc([N+](=O)[O-])c(CCNc2ccccc2)c([N+](=O)[O-])c1", "inhibition": "active: 73.6%"}
{"compound": "Cc1ccc(OP(=O)(Nc2ccccn2)Oc2ccc(C)cc2)cc1", "inhibition": "active: 82.7%"}
